Measurements published in patent US20250304567A1, “PYRROLIDIONE DERIVATIVES AS INHIBITORS OF NF KAPPA B INDUCING KINASE” (priority 2022, published 2025).

Amino acid sequences for entries named in this document (tags omitted).
UniProt Q99558, whole entry: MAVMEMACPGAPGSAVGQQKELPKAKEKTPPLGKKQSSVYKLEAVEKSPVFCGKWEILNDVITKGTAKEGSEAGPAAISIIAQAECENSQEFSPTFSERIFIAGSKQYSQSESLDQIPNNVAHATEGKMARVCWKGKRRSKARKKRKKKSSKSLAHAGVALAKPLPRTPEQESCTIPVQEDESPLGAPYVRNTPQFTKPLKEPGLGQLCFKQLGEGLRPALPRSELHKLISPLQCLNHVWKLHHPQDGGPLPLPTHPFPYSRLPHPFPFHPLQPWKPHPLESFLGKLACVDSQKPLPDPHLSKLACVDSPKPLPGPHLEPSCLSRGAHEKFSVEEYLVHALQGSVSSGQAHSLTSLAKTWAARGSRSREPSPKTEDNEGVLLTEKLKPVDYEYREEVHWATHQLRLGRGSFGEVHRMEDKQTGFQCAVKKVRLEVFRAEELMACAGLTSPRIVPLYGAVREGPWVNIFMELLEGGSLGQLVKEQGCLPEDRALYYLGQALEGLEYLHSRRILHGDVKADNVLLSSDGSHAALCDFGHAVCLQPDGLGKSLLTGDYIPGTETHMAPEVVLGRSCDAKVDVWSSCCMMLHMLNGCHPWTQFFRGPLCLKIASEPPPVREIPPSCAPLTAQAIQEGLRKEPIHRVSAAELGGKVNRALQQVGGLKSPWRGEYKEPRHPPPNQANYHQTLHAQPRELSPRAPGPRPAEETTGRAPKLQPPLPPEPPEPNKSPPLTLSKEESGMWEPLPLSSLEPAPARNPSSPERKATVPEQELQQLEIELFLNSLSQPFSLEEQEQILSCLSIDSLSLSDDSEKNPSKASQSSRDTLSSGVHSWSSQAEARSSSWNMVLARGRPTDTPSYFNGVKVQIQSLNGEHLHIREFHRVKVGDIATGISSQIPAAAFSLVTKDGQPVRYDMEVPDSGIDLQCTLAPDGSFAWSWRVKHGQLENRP

What was measured:
[1] = molecular target: Recombinant Human NF-kappaB-Inducing Kinase (NIK/MAP3K14) (Homo sapiens, UniProt Q99558); experiment: Inhibition of auto-phosphorylation of recombinant human NIK/MAP3K14 activity (AlphaScreen); conditions: read-out: Assay 1 IC50, 5 μM ATP, 1 nM NIK, average if tested more than once
Method: Assay 1: Inhibition of Auto-Phosphorylation of Recombinant Human NF-kappaB-Inducing Kinase (NIK/MAP3K14) Activity (AlphaScreen™)
NIK/MAP3K14 auto-phosphorylation activity was measured using the AlphaScreen™ (αscreen) format (Perkin Elmer). All compounds tested were dissolved in dimethyl sulfoxide (DMSO) and further dilutions were made in assay buffer. The final DMSO concentration was 0.7% (v/v) in assays. The assay buffer was 50 mM Tris pH 7.5 containing 1 mM EGTA (ethylene glycol tetraacetic acid), 1 mM DTT (dithiothreitol), 0.1 mM Na3VO4, 5 mM MgCl2, and 0.01% Tween®20. The assays were carried out in 384 well Proxiplates (Perkin Elmer). The incubations consisted of the compound, 5 μM Adenosine-5′-triphosphate (ATP), and 1 nM NIK/MAP3K14. Incubations were initiated by the addition of GST-tagged NIK/MAP3K14 enzyme, carried out for 2 h at 25° C. and terminated by addition of stop buffer containing anti-phospho-IKK Ser176/180 antibody. Protein A Acceptor and Glutathione-Donor beads were added before reading using an EnVision Multilabel Plate Reader (Perkin Elmer). The signal obtained in the wells was normalized using high (full enzyme activity, 0.7% DMSO) and low controls (no enzyme activity, 0.7% DMSO, no ATP). IC50's were determined by fitting a sigmoidal curve to % inhibition of control versus Log10 compound concentration.

[2] = system: p-IKKa levels in L363 (NIK translocated multiple myeloma) cells; experiment: Effect of compounds on p-IKKa levels in L363 (NIK translocated multiple myeloma) cells (AlphaLISA SureFire Ultra p-IKKa Ser176/180); format: cell-based, human; conditions: read-out: Assay 2 IC50, average if tested more than once
Method: Assay 2: Effect of Compounds on p-IKKa Levels in L363 (NIK Translocated Multiple Myeloma) Cells
All compounds tested were dissolved and serially diluted in DMSO, 1:3 dilution for 11 points in an Echo compatible plate. 100% DMSO was added to columns 12 and 24 of the plate to serve as high and low signal controls. This compound plate was used to spot 20 nL of compound or DMSO into a Greiner 384 well TC plate (781080). The final DMSO concentration was 0.3% (v/v) in cell assays. Human L363 cells (ATCC) were cultured in RPM11640 medium supplemented with GlutaMax, non-essential amino acids, sodium pyruvate and 10% fetal bovine serum. Cells were routinely maintained at densities of 0.2×10^6 cells per ml-2×10^6 cells per mL at 37° C. in a humidified 5% CO2 atmosphere incubator. […] At the end of this incubation, lysed cells were sequentially treated and incubated with acceptor and donor bead mixes according to the manufacturer's protocol for a 1 plate/2-incubation suspension cell assay (AlphaLISA SureFire Ultra p-IKKa (Ser 176/180) Assay Kit (Perkin Elmer). Plates were read using an EnVision Multilabel Plate Reader (Perkin Elmer). Within an experiment, a concentration response curve for each compound was run in duplicate. The signal obtained in the test wells was normalized using high signal (BAFF stimulated cells, DMSO, MG132) and low signal (unstimulated cells, DMSO) controls. […]

CN1CC[C@@](O)(c2cccc(-c3nc(-c4ccnc(N[C@@H]5CCC[C@@H]5O)n4)cs3)c2)C1=O
IC50 [1]: 0.1 to 0.5 µM
IC50 [2]: > 0.501 µM
